Experimental data: patent publication US7488822B2 (Wyeth, priority 1999, dated 2009)

Test system: rat uterine decidualization
Experiment: Rat decidualization assay
Details: decrease in EC50 progesterone induced decidual response

- Decidualization IC50: 6.96 mg/kg
SMILES: CC1(C)OC(=O)Nc2ccc(-c3ccc(F)c(C#N)c3)cc21
